One compound from patent publication US5872210A (priority 1995, dated 1999) can be followed below.

By UniProt entry, the sequences of proteins in these tests, tags left out. Residues count along the entry.
UniProt P00791, 60-385: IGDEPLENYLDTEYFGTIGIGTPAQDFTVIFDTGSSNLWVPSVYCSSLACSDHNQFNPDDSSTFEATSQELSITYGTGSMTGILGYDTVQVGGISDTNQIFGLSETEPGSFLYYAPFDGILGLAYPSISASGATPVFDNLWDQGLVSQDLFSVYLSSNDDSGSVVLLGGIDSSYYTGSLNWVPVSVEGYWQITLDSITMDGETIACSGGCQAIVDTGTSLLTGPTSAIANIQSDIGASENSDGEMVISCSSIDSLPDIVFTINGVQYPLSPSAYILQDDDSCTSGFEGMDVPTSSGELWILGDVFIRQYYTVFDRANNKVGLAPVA

This assay has as its target T1, Porcine pepsin (Sus scrofa, UniProt P00791).
T1 construct: porcine pepsinogen is converted to enzymatically active pepsin by loss of the first 44 N-terminal residues
As to the kind of experiment: Inhibition of pepsin (substrate II). The assay is classed as biochemical. The settings on record: pH 3.0. On the procedure:
HIV-1 protease was obtained and its active site concentration was determined at 25° C. Purified enzyme was stored as a 5-8 μM stock solution in 50 mM NaOAc (pH 5.0), 1 mM DTT, 1 mM EDTA, 0.05% reduced Triton X-100 at -80° C. Porcine pepsin was prepared as 1-2 mg/ml in 50 mM formic acid (pH 3.0). The peptide concentrations were adjusted for their protein content.
HIV-1 protease activity was measured at 25° C. using substrate I (Lys-Ala-Arg-Val-Nle-Phe (NO2) -Glu-Ala-Nle-NH2 wherein Nle is norleucine and Phe (NO2) is 4-nitrophenylalamine). In a typical assay, 2.5 μl of enzyme was added to 97.5 μl of buffer and 2.5 mM DTT in the presence or absence of varying concentrations of inhibitor. The reaction was initiated by the addition of 10 μl of a 4 mM solution of substrate I in water and monitored by following the decrease in absorption at […] in a 100 μl spectrophotometric cell. Pepsin was assayed using substrate II (Phe-Gly-His-Phe(NO2)-Phe-Ala-PheOCH3). The reaction was monitored by following the decrease in absorbance at 269 nm in a final volume of 110 μl of 50 mM formate buffer, pH 3.0, containing 150 mM and 160 μM enzyme and substrate, respectively, at 25° C. Concentrations of substrate solutions were determined spectrophotometrically at […].
Such selective inhibition facilitates treatment of HIV infected mammalian cells.

As usually defined, the Ki is a dissociation constant, usually derived from enzyme kinetics or from competition with a known ligand.

Structures are written as SMILES.

Compound `CC(C)C[C@H](NC(=O)[C@H](CC(=O)O)NC(=O)[C@@H](N)CCC(=O)O)C(=O)O` [Peptide 4, Glu--Asp--Leu] yielded a Ki of 7.5 mM. This counts as millimolar.
